Assays:
[1] = test system: lung metastasis; assay: Inhibition of lung metastasis by a single agent (preliminary results); type: in vivo; conditions: as a single agent
Description: Putative agents are tested for their ability to inhibit a metastatic cell, using an assay of the invention. In one assay, using methods as described elsewhere herein, detectably labeled metastatic cells are inoculated into immunodeficient mice bearing tumors, and the mice are then treated with agents that belong to the Epiregulin class of growth factors (also known as EREG, a ligand of the EGFR/HER receptor family). Among the agents tested are agents that target the EGF receptor (including Erbitux, Iressa and Tarceva) and agents that target HER2 (e.g., Herceptin). It is expected that these agents will inhibit the seeding of the metastatic cells in the assay to a similar degree to which they inhibit metastasis. […] Other agents that are tested include combinations of HER1/EGFR and/or HER2 inhibitors with Celecoxib (Pfizer), which is a cyclooxygenase synthase-2 (COX-2) inhibitor. […] The action of the agents or combinations of agents in the seeding assay of the invention is expected to mirror the antimetastatic properties of the agents or combinations of agents.

[2] = test system: detectably labeled metastatic cells; assay: Seeding assay of the invention: seeding of tumors by detectably labeled metastatic cells in tumor-bearing immunodeficient mice; type: in vivo; conditions: single agent; result stated as similar to the lung metastasis result (Erbitux but not Herceptin inhibits)
Description: Mammary tumor colonization assays. Both the parental MDA-MB-231 population and its metastatic derivative LM2 cells were infected with retrovirus expressing either a thymidine kinase-GFP-firefly luciferase (TGL) or a thymidine kinase-RFP-renilla luciferase (TRL) fusion protein^27. Infected cells were sorted by FACS. To assess mammary tumor seeding from circulation, 1×10^6 RFP expressing parental cells were first implanted into mammary gland #2 of immunodeficient mice as previously described^12. Once these RFP expressing tumors became palpable (100 mm^3), 1×10^5 GFP-luciferase expressing LM2 or parental cells were injected into the left ventricle of tumor-bearing animals. Colonization of mammary tumors was determined by luciferase bioluminescence measurements. Animals were sacrificed after 36 days, tumors removed, fixed in 4% paraformaldehyde, and frozen in OCT. Confirmation of mammary tumor seeding was achieved by visualizing tumor sections with a Zeiss Axiovert 200M microscope, as well as a Leica TCS SP2 AOBS inverted confocal microscope.
Putative agents are tested for their ability to inhibit a metastatic cell, using an assay of the invention. […]

Row | Substance | inhibition of lung metastasis [1] | inhibition of seeding of the metastatic cells [2]
1 | Erbitux: agent that targets the EGF receptor | inhibits lung metastasis | a similar result is found
2 | Herceptin: agent that targets HER2 | not Herceptin inhibits lung metastasis | a similar result is found
